Values of other authors, collected in patent US7109331B2, “5H-pyrrolo[3,2-d]pyrimidine nucleoside metabolism inhibitors” (Industrial Research Limited, priority 2000, dated 2006).

Tested on: contact sensitivity ear swelling
Conditions: mice

Nc1nc2c(Cc3cccnc3)c[nH]c2c(=O)[nH]1 [9-(3-pyridylmethyl)-9-deazaguanine]
oral dose required for activity: 50 mg/kg
